pIC50: −log10 of the molar value. Read-outs that look alike come from different tables or passages of the source.
Key:
fibrin polymerization [1] = biological target: T1, fibrin polymerization (Homo sapiens, UniProt P02671+P02675+P02679); details: literature values (refs [6], [2]); turbidity analysis; cited from earlier work
T1 sequence (P02671 20-644 isoform P02671-2 limits assumed): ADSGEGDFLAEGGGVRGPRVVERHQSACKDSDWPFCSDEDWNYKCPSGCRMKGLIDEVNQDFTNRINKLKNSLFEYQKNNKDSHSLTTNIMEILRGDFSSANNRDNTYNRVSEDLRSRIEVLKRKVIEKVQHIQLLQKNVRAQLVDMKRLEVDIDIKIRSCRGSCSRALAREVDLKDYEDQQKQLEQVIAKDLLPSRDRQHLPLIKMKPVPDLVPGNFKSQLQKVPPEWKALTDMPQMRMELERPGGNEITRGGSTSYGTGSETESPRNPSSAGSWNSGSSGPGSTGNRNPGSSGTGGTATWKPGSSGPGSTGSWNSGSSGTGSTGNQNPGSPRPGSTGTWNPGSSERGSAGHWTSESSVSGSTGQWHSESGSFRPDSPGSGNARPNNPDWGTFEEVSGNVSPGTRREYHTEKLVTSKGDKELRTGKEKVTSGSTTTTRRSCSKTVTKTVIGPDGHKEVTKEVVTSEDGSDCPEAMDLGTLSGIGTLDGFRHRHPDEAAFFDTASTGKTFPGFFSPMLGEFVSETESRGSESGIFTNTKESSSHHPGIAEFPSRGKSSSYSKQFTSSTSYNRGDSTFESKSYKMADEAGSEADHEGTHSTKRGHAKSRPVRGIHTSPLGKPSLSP
T1 sequence (P02675 45-491 limits assumed): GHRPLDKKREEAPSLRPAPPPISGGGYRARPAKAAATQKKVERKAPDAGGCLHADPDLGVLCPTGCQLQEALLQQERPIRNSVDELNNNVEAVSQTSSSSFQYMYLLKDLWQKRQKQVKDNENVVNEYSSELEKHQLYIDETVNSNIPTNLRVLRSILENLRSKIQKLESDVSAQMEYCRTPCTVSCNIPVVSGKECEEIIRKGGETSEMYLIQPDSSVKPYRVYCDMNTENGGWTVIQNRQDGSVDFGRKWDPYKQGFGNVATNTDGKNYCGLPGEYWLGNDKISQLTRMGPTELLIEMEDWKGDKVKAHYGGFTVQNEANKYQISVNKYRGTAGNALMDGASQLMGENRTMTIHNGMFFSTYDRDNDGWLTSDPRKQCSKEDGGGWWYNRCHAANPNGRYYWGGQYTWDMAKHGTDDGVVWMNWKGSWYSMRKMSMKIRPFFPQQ
T1 sequence (P02679 27-437 isoform P02679-2 limits assumed): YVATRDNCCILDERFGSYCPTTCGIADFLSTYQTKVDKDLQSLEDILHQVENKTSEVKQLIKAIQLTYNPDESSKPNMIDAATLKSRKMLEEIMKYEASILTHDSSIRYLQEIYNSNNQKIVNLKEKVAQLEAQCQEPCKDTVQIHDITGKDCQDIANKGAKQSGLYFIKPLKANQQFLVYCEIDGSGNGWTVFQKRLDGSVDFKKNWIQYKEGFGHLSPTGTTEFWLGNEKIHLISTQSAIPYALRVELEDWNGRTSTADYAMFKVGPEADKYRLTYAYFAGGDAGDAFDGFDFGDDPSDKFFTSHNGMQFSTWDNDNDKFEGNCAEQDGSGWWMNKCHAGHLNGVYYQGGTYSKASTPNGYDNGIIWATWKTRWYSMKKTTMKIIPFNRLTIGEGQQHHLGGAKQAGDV

fibrin polymerization [2] = biological target: T1, fibrin polymerization; assay: Turbidity analysis of fibrin polymerization (system not specified); type: biochemical; details: applicant's own experiments
Source text: Furthermore, because of electro neutrality of the declared calixarene-145 molecule, it may be more suitable for injection to a living organism as an inhibitor of fibrin polymerization and the process of blood clotting, as well.

- pIC50 (fibrin polymerization [2]): 4.30
Structure (SMILES): N=C(N)NCCC[C@H](NC(=O)[C@@H]1CCCN1C(=O)CN)C(=O)N1CCC[C@H]1C(=O)O [Gly-Pro-Arg-Pro, reference compound]
- pIC50 (fibrin polymerization [1]): 4.07

Source: patent US20130090494A1, “TETRAKIS[BIS(DIHYDROXYPHOSPHORYL)METHYL]CALIX[4]ARENE OR ITS SODIUM SALT THEREOF AS FIBRIN POLYMERIZATION INHIBITORS” (priority 2010, published 2013)
